Assay outcomes: PubChem BioAssay, National Center for Advancing Translational Sciences (NCATS)
In the library only some 3.7% were active in any assay of this set; here they are far more common.
IL2 activator = activates IL-2 in a cell-based reporter assay; 360,000 compounds, 0.065% hits; AID 652025; IL-2 activation reporter assay, cell-based qHTS; stimulated with anti-CD3/CD4/CD28 beads; in transgenic mouse T cells; activation, % (series mostly up to about 46 µM); in the data active = activation above about 50%; inconclusive = mostly about 30% to 49%; also: 0% is about no effect
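Readout: EGFP and DsRed signals by fluorescent plate cytometry. Unstimulated transgenic mouse T cells received compound 60 min before antibody-bead stimulation, then incubated 18 h at 37 degrees C.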
A549 tox = kills or reduces viability of A549 cells in Nrf2 counter-screen. A549 ARE-Fluc cells, CellTiter-Fluor viability, 18-24 h. Potency, µM (doses to about 46 µM), without a hit: at the top dose activity change, negative = cytotoxicity, actives largely listed as inhibitors. 390,000 compounds, 0.16% hits. AID 504648; also: potency is read from the fitted curve at half-maximal effect; % is scaled to controls: 0 for no effect and ±100 for the full control effect
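A549 ARE-Fluc cells in 5% FBS OPTI-MEM, 5000 cells/well, rested 2 h then exposed to compounds in concentration-response for 18-24 h at 37 °C. Viability by CellTiter-Fluor fluorescence (Ex 405/Em 525) after 30 min; luciferase luminescence (BugLite, 15 min, RT) read afterwards.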
Nrf2 block = blocks Nrf2 signaling; A549 ARE-Fluc reporter, luciferase luminescence, 18-24 h; Potency, µM (titrated, usually from 46 µM), inactives show at the top dose activity change, negative = inhibition, usual class: inhibitors; 360,000 compounds, 2.1% hits; AID 504444; also: potency is read from the fitted curve at half-maximal effect; % is scaled to controls: 0 for no effect and ±100 for the full control effect; nearly all actives have a fitted effect of over 60% in size
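A549 ARE_Fluc cells (5000/well, 5% FBS OPTI-MEM) pre-incubated 2 h, then treated with compounds 18-24 h at 37C/5% CO2 in concentration-response. CellTiter-Fluor viability read first; BugLite luciferase luminescence after 15 min at room temperature gives Nrf2 activity.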
miR-21 FLuc = miR-21 reporter, rising signal | AID 2288 | HeLa miR-21 FLuc reporter, luciferase, 48 h | 340,000 tested, under 10 active | Potency, µM (titrated, usually from 38.3 µM), for the others: at the top dose reporter change, positive = more light; active = well fitted rising curve with a large enough effect; inconclusive = small, poorly fitted or top-dose-only effect; inactive = no such curve, though single readings can be large or run the other way;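 also: % of control where 0% means no effect; miR-21 action dims this reporter so a rising signal means less miR-21 action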
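Compounds were titrated across several concentrations (up to approximately 40 uM) and incubated 48 hours with HeLa miR-21-FLuc reporter cells (miR-21 target sequence downstream of FLuc, endogenous miR-21). Readout was firefly luciferase luminescence after lytic detection reagent.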
ClpP mod = qHTS Assay for Activators of ClpP; ATP-dependent Clp protease proteolytic subunit (Bacillus subtilis (strain 168)), P80244; purified B. subtilis ClpP, FRET peptide cleavage, 20 min; Potency, µM (titrated, usually from 57.5 µM), inactives show at the top dose activity change, negative = active; 340,000 compounds, 1.9% hits; active = well fitted falling curve with a large enough effect; inconclusive = small, poorly fitted or top-dose-only effect; inactive = no such curve, though single readings can be large or run the other way; also: potency is read from the fitted curve at half-maximal effect; the source files actives as falling curves though it sought activators and does not explain the sign; nearly all actives have a fitted effect of over 65% in size
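Buffer: 100 mM Tris/HCl pH8, 100 mM KCl, 0.05% low protease BSA, 2.5% glycerol, 0.01% Tween-20. ClpP 10 microg/mL final; 20 min RT; delta FRET normalized to ADEP and DMSO controls.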
Nrf2 ARE act = Nrf2 pathway activation. Potency, µM (doses to about 46.1 µM), for the others: top-dose activation, hits mostly activators. AREc32 ARE-luciferase reporter (MCF7-derived line), luminescence, 24 h. AID 624171. 410,000 compounds, 0.31% hits; also: potency is read from the fitted curve at half-maximal effect; % of control where 0% means no effect; nearly all actives have a fitted effect of over 65% in size
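Luciferase luminescence (Steady-Glo, 30 min at room temperature) served as the read-out of ARE activation in AREc32 cells treated with compounds for 24 hr at 37 deg C.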
* = called active by the depositor; ? = inconclusive; nt = no result. Unless noted, calls follow the shape of the dose curve; as a rule, active = well fitted curve in the direction sought with a large enough effect; inconclusive = small, poorly fitted or top-dose-only effect, or another doubt; inactive = no such curve, though single readings can be large; an effect the other way counts as inactive or inconclusive.

1: Cc1cccc(C(=O)Nc2ccc(N3CC=C(c4ccccc4C)CC3)c(C(=O)O)c2)c1
2: Cc1cc2c(s1)c1cnn(Cc3cc(C(F)(F)F)cc(Cl)c3F)c(=O)c1n2C
3: O=S(=O)(Nc1nc2ccccc2nc1Nc1cccc(S(=O)(=O)N2CCCCC2)c1)c1ccccc1
4: CCOC(=O)c1ccc(Nc2nc3ccccc3nc2NS(=O)(=O)c2ccc(Cl)cc2)cc1
5: CCOc1ccc(S(=O)(=O)Nc2nc3ccccc3nc2Nc2ccc(OC)cc2)cc1
6: CCc1ccc(Nc2nc3ccccc3nc2NS(=O)(=O)c2ccccc2)cc1
7: COc1ccc(Nc2nc3ccccc3nc2NS(=O)(=O)c2cccs2)cc1
8: COc1ccc(-c2noc(CSc3nnc(C)n3-c3cccc(C)c3)n2)cc1
entry no. | 1 | 2 | 3 | 4 | 5 | 6 | 7 | 8
IL2 activator | nt | nt | 0 | nt | nt | nt | -3 | nt
A549 tox | 1% | 0% | ? | 2% | -18% | -17% | -19% | -7%
Nrf2 block | nt | -5% | 12µM* | 5% | 26µM* | 23µM* | 16µM* | ?
miR-21 FLuc | -13% | nt | 17% | 14% | 1% | -21% | -9% | -3%
ClpP mod | -18% | nt | 25µM* | 4% | -5% | ? | -5% | 1%
Nrf2 ARE act | -1% | nt | 0% | -2% | 0% | 0% | 0% | 6%

9: Nc1nonc1C(=O)NCCNCc1cccc(Cl)c1Cl
10: Cc1nn(-c2ccc(Cl)cn2)c2c1C(=O)CC(C)(C)C2Br (centres undefined)
11: Cc1ccc(-n2nc(C)c3c2C(Br)C(C)(C)CC3=O)nc1 (centres undefined)
12: O=c1[nH]c(/C=C/c2ccc(Br)cc2)nc2ccccc12
13: CN(C)c1ccc(/C=C/c2nc3ccccc3c(=O)[nH]2)cc1
14: O=c1[nH]c(/C=C/c2ccccc2[N+](=O)[O-])nc2ccccc12
15: Oc1ccc(CNc2ccc(F)cc2F)c2cccnc12
16: CC(C)[n+]1ccn(C2=C([O-])c3ccccc3C(=O)/C2=N\S(=O)(=O)c2ccccc2)c1
entry no. | 9 | 10 | 11 | 12 | 13 | 14 | 15 | 16
IL2 activator | nt | 2 | 0 | -1 | 61* | 0 | nt | -1
A549 tox | 1% | 4% | -14% | 1% | 6% | 7% | -17% | -8%
Nrf2 block | 3% | -26% | 7.3µM* | 15% | -15% | 5% | 10µM* | 23µM*
miR-21 FLuc | -9% | nt | nt | -64% | -10% | -11% | nt | 23%
ClpP mod | 2% | 0% | -3% | 13% | 1% | -6% | nt | nt
Nrf2 ARE act | -1% | 8% | 12% | 0% | 0% | 1.3µM* | nt | -2%

17: CCCC[n+]1ccn(C2=C([O-])c3ccccc3C(=O)/C2=N\S(=O)(=O)c2ccccc2)c1
18: CCOc1ccccc1NCc1nnc2n1CCCCC2
19: COc1ccc(OC)c(NC(=O)Cn2c(=O)cc(C)c3c(C)nn(-c4cccc(Cl)c4C)c32)c1
20: COc1ccc(NC(=O)Cn2c(=O)cc(C)c3c(C)nn(C)c32)cc1
21: CCOc1ccc(NC(=O)Cn2c(=O)cc(C)c3c(C)nn(C)c32)cc1
22: COc1ccc(CNC(=O)Cn2c(=O)cc(C)c3c(C)nn(-c4cccc(Cl)c4C)c32)cc1
23: Cc1cccc(NC(=O)C(=O)NNC(=O)c2ccc(C(C)(C)C)cc2)c1
24: Cc1cccc(NC(=O)c2ccc(C(=O)c3ccccc3)o2)c1
entry no. | 17 | 18 | 19 | 20 | 21 | 22 | 23 | 24
IL2 activator | 1 | nt | nt | nt | nt | nt | 1 | 0
A549 tox | ? | 13% | ? | -1% | 0% | -1% | 6.5µM* | -1%
Nrf2 block | 20µM* | nt | 21µM* | nt | 13µM* | 21% | ? | ?
miR-21 FLuc | 19% | -5% | -1% | 6% | 4% | 0% | -1% | -59%
ClpP mod | 1% | 0% | -2% | 1% | -5% | 0% | 0% | 22µM*
Nrf2 ARE act | -2% | 0% | -1% | 1% | 1% | 1% | 2% | 3%

Quoted from the listing:
A549 tox, COc1ccc(-c2noc(CSc3nnc(C)n3-c3cccc(C)c3)n2)cc1 stands at -7%
A549 tox, Cc1cc2c(s1)c1cnn(Cc3cc(C(F)(F)F)cc(Cl)c3F)c(=O)c1n2C stands at 0%
Nrf2 ARE act, O=S(=O)(Nc1nc2ccccc2nc1Nc1cccc(S(=O)(=O)N2CCCCC2)c1)c1ccccc1 stands at 0%
ClpP mod, Cc1cccc(C(=O)Nc2ccc(N3CC=C(c4ccccc4C)CC3)c(C(=O)O)c2)c1 stands at -18%

Following part
25: O=C(c1ccccc1)c1cccc(NC(=O)c2ccc(Br)o2)c1
26: Cc1ccc(NC(=O)Nc2nnc(N3CCCC3)s2)c(C)c1
27: CC1CC(C)(C)CC2(C1)NC(=S)N(c1ccccc1)N2 (centres undefined)
28: CC(Nc1ncnc2c1cnn2-c1cccc(Cl)c1)c1ccccc1 (centres undefined)
29: CNc1c(C(=O)O)ccc2c1C(=O)c1ccccc1C2=O
30: CCNc1c(C(=O)O)ccc2c1C(=O)c1ccccc1C2=O
31: Cc1ccc(S(=O)(=O)Nc2cc(Cl)c(O)c3ncccc23)cc1
32: CCN(CC(=O)Nc1c(F)cccc1F)C(=O)c1ccc(N2CCCCC2)c([N+](=O)[O-])c1
entry no. | 25 | 26 | 27 | 28 | 29 | 30 | 31 | 32
IL2 activator | -3 | nt | 0 | nt | 5 | 4 | -1 | -4
A549 tox | 10% | 3% | 0% | -16% | 18µM* | -29% | -23% | -12%
Nrf2 block | -28% | 1% | nt | nt | ? | ? | 21µM* | 16µM*
miR-21 FLuc | -11% | 2% | -21% | 5% | 0% | -3% | 20% | -5%
ClpP mod | -4% | 0% | 16µM* | -9% | 0% | -21% | 1% | -1%
Nrf2 ARE act | 4% | 0% | 4% | -1% | -1% | 0% | 6% | 0%

33: O=S(=O)(c1ccc2c(c1)OCCO2)N1CCN(S(=O)(=O)c2cc(F)c(F)cc2F)CC1
34: CCc1ccc(C(=O)c2cn(CC(=O)Nc3cccc(OC)c3)c3cc4c(cc3c2=O)OCO4)cc1
35: O=C(O)c1cc(N2C(=O)C3CC=CCC3C2=O)ccc1NCc1cccnc1 (centres undefined)
36: O=C(O)c1cc(N2C(=O)CCC2=O)ccc1NCc1cccnc1
37: CCN1CCN(c2ccc(Nc3ccnc4ccccc34)cc2)CC1
38: CN1CCN(c2ccc(Nc3ccnc4cc(Cl)ccc34)cc2)CC1
39: c1csc(CNc2ncnc3cc(-c4ccc5c(c4)OCO5)ccc23)c1
40: COc1ccc(-c2noc(CSc3nnc(Cc4ccccc4)n3-c3cccc(C)c3)n2)cc1
entry no. | 33 | 34 | 35 | 36 | 37 | 38 | 39 | 40
IL2 activator | nt | nt | 2 | -2 | 0 | -2 | nt | nt
A549 tox | -2% | 0% | -1% | 0% | 6.5µM* | 6.5µM* | -3% | ?
Nrf2 block | -18% | -10% | 17% | 1% | 12% | ? | -13% | 23µM*
miR-21 FLuc | nt | 11% | 1% | -1% | nt | 8% | nt | 17%
ClpP mod | nt | -5% | 32µM* | 3% | -1% | nt | nt | 1%
Nrf2 ARE act | nt | 0% | 0% | 0% | 0% | 4% | nt | 0%

41: COc1ccc(N2CCN(S(=O)(=O)CCNC(=O)c3ccc(C(F)(F)F)cc3)CC2)cc1
42: CCC(C)NC(=O)c1cn(-c2cccc(C)n2)cn1 (centres undefined)
43: Cc1cccc(-n2cnc(C(=O)O)c2)n1
44: O=C(c1ccc(Cl)cc1)N1CCC(c2ccncc2)CC1
45: Cc1ccc(-c2csc(N3CCC(C(N)=O)CC3)n2)cc1
46: Cc1ccc(-c2csc(N3CCC(NS(=O)(=O)c4ccc5c(c4)OCCO5)CC3)n2)cc1
entry no. | 41 | 42 | 43 | 44 | 45 | 46
IL2 activator | nt | 0 | -1 | nt | -1 | -3
A549 tox | 12% | 2% | -4% | 1% | 9% | ?
Nrf2 block | nt | nt | -4% | nt | 9% | 15µM*
miR-21 FLuc | -2% | -51% | -1% | 10% | nt | ?
ClpP mod | 0% | 32µM* | nt | -2% | nt | -1%
Nrf2 ARE act | 0% | -1% | 0% | 2% | 3% | 7%

3 structures out of the list, arranged by molecular weight, high to low.
41: COc1ccc(N2CCN(S(=O)(=O)CCNC(=O)c3ccc(C(F)(F)F)cc3)CC2)cc1
45: Cc1ccc(-c2csc(N3CCC(C(N)=O)CC3)n2)cc1
43: Cc1cccc(-n2cnc(C(=O)O)c2)n1
entry no. | 41 | 45 | 43
IL2 activator | nt | -1 | -1
A549 tox | 12% | 9% | -4%
Nrf2 block | nt | 9% | -4%
miR-21 FLuc | -2% | nt | -1%
ClpP mod | 0% | nt | nt
Nrf2 ARE act | 0% | 3% | 0%
